In patent publication US20260382613A1, “METHODS OF TREATING ACUTE LEUKEMIA” (published 2026):

Experiment: clinical safety and tolerability (TEAEs, SAEs, DLTs, QTc), Phase 1 study
Conditions: for most common TEAEs ≥Grade 3: 200 or 600 mg
[1] = NPM1-m 600 mg N=20, cutoff 12 Apr 2023
[2] = NPM1-m 600 mg n=20, cutoff 31 Jan 2023

CNc1nc(NC2CCN(Cc3ccc4c(cc(C#N)n4C[C@H](C)N4CCN(S(C)(=O)=O)CC4)c3C)CC2)c2cc(CC(F)(F)F)sc2n1
Alanine aminotransferase increased, Grade 3 or above TEAE (200 mg N=23): 2 (8.7) %
Anemia, Grade 3 or above TEAE (200 mg N=23): 7 (30.4) %
Diarrhea, Grade 3 or above TEAE (200 mg N=23): 0%
Febrile neutropenia, Grade 3 or above TEAE (200 mg N=23): 7 (30.4) %
Hyperglycemia, Grade 3 or above TEAE (200 mg N=23): 0%
Hypoxia, Grade 3 or above TEAE (200 mg N=23): 3 (13.0) %
Leukocytosis, Grade 3 or above TEAE (200 mg N=23): 2 (8.7) %
Neutropenia, Grade 3 or above TEAE (200 mg N=23): 2 (8.7) %
Neutrophil count decreased, Grade 3 or above TEAE (200 mg N=23): 3 (13.0) %
Patients with Grade 3 or above TEAE (200 mg N=23): 20 (87.0) %
Platelet count decreased, Grade 3 or above TEAE (200 mg N=23): 3 (13.0) %
Pneumonia, Grade 3 or above TEAE (200 mg N=23): 5 (21.7) %
Sepsis, Grade 3 or above TEAE (200 mg N=23): 5 (21.7) %
Thrombocytopenia, Grade 3 or above TEAE (200 mg N=23): 3 (13.0) %
safety profile in NPM1-m AML vs non-NPM1-m AML (600 mg): more favorable safety profile
Alanine aminotransferase increased, Grade 3 or above TEAE (600 mg N=41): 3 (7.3) %
Anemia, Grade 3 or above TEAE (600 mg N=41): 11 (26.8) %
Diarrhea, Grade 3 or above TEAE (600 mg N=41): 4 (9.8) %
Febrile neutropenia, Grade 3 or above TEAE (600 mg N=41): 9 (22.0) %
Hyperglycemia, Grade 3 or above TEAE (600 mg N=41): 5 (12.2) %
Hypoxia, Grade 3 or above TEAE (600 mg N=41): 4 (9.8) %
Leukocytosis, Grade 3 or above TEAE (600 mg N=41): 3 (7.3) %
Neutropenia, Grade 3 or above TEAE (600 mg N=41): 3 (7.3) %
Neutrophil count decreased, Grade 3 or above TEAE (600 mg N=41): 2 (4.9) %
Patients with Grade 3 or above TEAE (600 mg N=41): 39 (95.1) %
Platelet count decreased, Grade 3 or above TEAE (600 mg N=41): 3 (7.3) %
Pneumonia, Grade 3 or above TEAE (600 mg N=41): 6 (14.6) %
Sepsis, Grade 3 or above TEAE (600 mg N=41): 4 (9.8) %
Thrombocytopenia, Grade 3 or above TEAE (600 mg N=41): 6 (14.6) %
Dose-limiting toxicities (KMT2A-r): 30.0%
Alanine aminotransferase increased, Grade 3 or above TEAE (KMT2A-r 200+600 mg N=32): 5 (15.6) %
Anemia, Grade 3 or above TEAE (KMT2A-r 200+600 mg N=32): 9 (28.1) %
Diarrhea, Grade 3 or above TEAE (KMT2A-r 200+600 mg N=32): 0%
Febrile neutropenia, Grade 3 or above TEAE (KMT2A-r 200+600 mg N=32): 9 (28.1) %
Hyperglycemia, Grade 3 or above TEAE (KMT2A-r 200+600 mg N=32): 2 (6.3) %
Hypoxia, Grade 3 or above TEAE (KMT2A-r 200+600 mg N=32): 4 (12.5) %
Leukocytosis, Grade 3 or above TEAE (KMT2A-r 200+600 mg N=32): 4 (12.5) %
Neutropenia, Grade 3 or above TEAE (KMT2A-r 200+600 mg N=32): 1 (3.1) %
Neutrophil count decreased, Grade 3 or above TEAE (KMT2A-r 200+600 mg N=32): 2 (6.3) %
Patients with Grade 3 or above TEAE (KMT2A-r 200+600 mg N=32): 31 (96.9) %
Platelet count decreased, Grade 3 or above TEAE (KMT2A-r 200+600 mg N=32): 4 (12.5) %
Pneumonia, Grade 3 or above TEAE (KMT2A-r 200+600 mg N=32): 5 (15.6) %
Sepsis, Grade 3 or above TEAE (KMT2A-r 200+600 mg N=32): 4 (12.5) %
Thrombocytopenia, Grade 3 or above TEAE (KMT2A-r 200+600 mg N=32): 3 (9.4) %
most common TEAEs ≥Grade 3 (KMT2A-r, Ph1a+1b): anemia, febrile neutropenia, pneumonia, sepsis, increased alanine aminotransferase, decreased platelet count, and differentiation syndrome
Pneumonia, SAE in ≥10% (KMT2A-r, Ph1a+1b): 12.5%
Sepsis, SAE in ≥10% (KMT2A-r, Ph1a+1b): 12.5%
Dose-limiting toxicities (NPM1-m): 14.3%
at least one ≥Grade 3 TEAE [1]: 85%
potentially treatment-related ≥Grade 3 TEAE [1]: 30%
Pneumonia, TEAE ≥Grade 3 [2]: 20%
TEAEs considered potentially treatment-related [2]: 30%
at least one ≥Grade 3 TEAE [2]: 85%
Alanine aminotransferase increased, Grade 3 or above TEAE (NPM1-m 200+600 mg N=26): 0%
Anemia, Grade 3 or above TEAE (NPM1-m 200+600 mg N=26): 7 (26.9) %
Diarrhea, Grade 3 or above TEAE (NPM1-m 200+600 mg N=26): 4 (15.4) %
Febrile neutropenia, Grade 3 or above TEAE (NPM1-m 200+600 mg N=26): 6 (23.1) %
Hyperglycemia, Grade 3 or above TEAE (NPM1-m 200+600 mg N=26): 3 (11.5) %
Hypoxia, Grade 3 or above TEAE (NPM1-m 200+600 mg N=26): 3 (11.5) %
Leukocytosis, Grade 3 or above TEAE (NPM1-m 200+600 mg N=26): 1 (3.8) %
Neutropenia, Grade 3 or above TEAE (NPM1-m 200+600 mg N=26): 4 (15.4) %
Neutrophil count decreased, Grade 3 or above TEAE (NPM1-m 200+600 mg N=26): 3 (11.5) %
Patients with Grade 3 or above TEAE (NPM1-m 200+600 mg N=26): 23 (88.5) %
Platelet count decreased, Grade 3 or above TEAE (NPM1-m 200+600 mg N=26): 1 (3.8) %
Pneumonia, Grade 3 or above TEAE (NPM1-m 200+600 mg N=26): 6 (23.1) %
Sepsis, Grade 3 or above TEAE (NPM1-m 200+600 mg N=26): 5 (19.2) %
Thrombocytopenia, Grade 3 or above TEAE (NPM1-m 200+600 mg N=26): 6 (23.1) %
most common TEAEs ≥Grade 3 (NPM1-m, Ph1a+1b): anemia, neutropenia, thrombocytopenia, diarrhea, pneumonia, sepsis, decreased neutrophil count, decreased white blood cell count, and hyperglycemia
Clostridium difficile infection, SAE in ≥10% (NPM1-m, Ph1a+1b): 11.8%
Pneumonia, SAE in ≥10% (NPM1-m, Ph1a+1b): 11.8%
Sepsis, SAE in ≥10% (NPM1-m, Ph1a+1b): 11.8%
≥Grade 3 TEAEs in >10% of patients (NPM1-m, Ph1b 53 subjects): None were reported
drug-induced QT/QTc prolongation (Ph1a): No drug-induced QT/QTc prolongation was reported
number of dose-limiting toxicities (Ph1a): Two
Anemia, ≥Grade 3 TEAE (All Causality) (Ph1a 50 mg N=1): 0%
Decreased appetite, ≥Grade 3 TEAE (All Causality) (Ph1a 50 mg N=1): 0%
Febrile neutropenia, ≥Grade 3 TEAE (All Causality) (Ph1a 50 mg N=1): 0%
Neutropenia, ≥Grade 3 TEAE (All Causality) (Ph1a 50 mg N=1): 0%
Pneumonia, ≥Grade 3 TEAE (All Causality) (Ph1a 50 mg N=1): 1 (100) %
SAEs (All Causality) (Ph1a 50 mg N=1): 1 (100.0) %
SAEs (Ziftomenib-Related) (Ph1a 50 mg N=1): 0 (0.0) %
TEAEs (All Causality) (Ph1a 50 mg N=1): 1 (100.0) %
Thrombocytopenia, ≥Grade 3 TEAE (All Causality) (Ph1a 50 mg N=1): 0%
≥Grade 3 TEAEs (All Causality) (Ph1a 50 mg N=1): 1 (100.0) %
≥Grade 3 TEAEs (Ziftomenib-Related) (Ph1a 50 mg N=1): 1 (100.0) %
Anemia, ≥Grade 3 TEAE (All Causality) (Ph1a 100 mg N=1): 0%
Decreased appetite, ≥Grade 3 TEAE (All Causality) (Ph1a 100 mg N=1): 0%
Febrile neutropenia, ≥Grade 3 TEAE (All Causality) (Ph1a 100 mg N=1): 0%
Neutropenia, ≥Grade 3 TEAE (All Causality) (Ph1a 100 mg N=1): 1 (100) %
Pneumonia, ≥Grade 3 TEAE (All Causality) (Ph1a 100 mg N=1): 0%
SAEs (All Causality) (Ph1a 100 mg N=1): 1 (100.0) %
SAEs (Ziftomenib-Related) (Ph1a 100 mg N=1): 1 (100.0) %
TEAEs (All Causality) (Ph1a 100 mg N=1): 1 (100.0) %
Thrombocytopenia, ≥Grade 3 TEAE (All Causality) (Ph1a 100 mg N=1): 0%
≥Grade 3 TEAEs (All Causality) (Ph1a 100 mg N=1): 1 (100.0) %
≥Grade 3 TEAEs (Ziftomenib-Related) (Ph1a 100 mg N=1): 1 (100.0) %
Anemia, ≥Grade 3 TEAE (All Causality) (Ph1a 200 mg N=6): 2 (33.3) %
Decreased appetite, ≥Grade 3 TEAE (All Causality) (Ph1a 200 mg N=6): 2 (33.3) %
Febrile neutropenia, ≥Grade 3 TEAE (All Causality) (Ph1a 200 mg N=6): 0%
Neutropenia, ≥Grade 3 TEAE (All Causality) (Ph1a 200 mg N=6): 1 (16.7) %
Pneumonia, ≥Grade 3 TEAE (All Causality) (Ph1a 200 mg N=6): 2 (33.3) %
SAEs (All Causality) (Ph1a 200 mg N=6): 4 (66.7) %
SAEs (Ziftomenib-Related) (Ph1a 200 mg N=6): 1 (16.7) %
TEAEs (All Causality) (Ph1a 200 mg N=6): 6 (100.0) %
Thrombocytopenia, ≥Grade 3 TEAE (All Causality) (Ph1a 200 mg N=6): 1 (16.7) %
≥Grade 3 TEAEs (All Causality) (Ph1a 200 mg N=6): 5 (83.3) %
≥Grade 3 TEAEs (Ziftomenib-Related) (Ph1a 200 mg N=6): 1 (16.7) %
dose-limiting toxicity (Ph1a 400 mg): pneumonitis
Anemia, ≥Grade 3 TEAE (All Causality) (Ph1a 400 mg N=5): 1 (20.0) %
Decreased appetite, ≥Grade 3 TEAE (All Causality) (Ph1a 400 mg N=5): 0%
Febrile neutropenia, ≥Grade 3 TEAE (All Causality) (Ph1a 400 mg N=5): 1 (20.0) %
Neutropenia, ≥Grade 3 TEAE (All Causality) (Ph1a 400 mg N=5): 0%
Pneumonia, ≥Grade 3 TEAE (All Causality) (Ph1a 400 mg N=5): 1 (20.0) %
SAEs (All Causality) (Ph1a 400 mg N=5): 4 (80.0) %
SAEs (Ziftomenib-Related) (Ph1a 400 mg N=5): 1 (20.0) %
TEAEs (All Causality) (Ph1a 400 mg N=5): 5 (100.0) %
Thrombocytopenia, ≥Grade 3 TEAE (All Causality) (Ph1a 400 mg N=5): 1 (20.0) %
≥Grade 3 TEAEs (All Causality) (Ph1a 400 mg N=5): 4 (80.0) %
